Only a part is listed here, and it is no random draw. Some results for these compounds are left out of this collection, so the calls shown say nothing about other tests. Active and inactive are the calls of the source.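 How the source made its calls: active means mean lysis activity across replicates of at least 80%, whatever share of replicates individually reach that level; inactive means mean lysis activity below 80%.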

This assay in a line: fungicidal lysis via adenylate kinase leakage – AK release luminescence, single concentration, primary screen (AID 651654). To be noted: C. neoformans lysis, 4 h, at 15 µM, hits give high values, normalised: neutral wells 0, clomiphene wells 100. Put shortly:
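Schedule: static 4 h at 37 °C with compound, 1 h detection; system: C. neoformans cells; benchmarks: Clomiphene as positive control; buffer or medium: fresh YPD medium; measure: luminescence rise reflecting yeast cell lysis; measured by: luminescent adenylate kinase detection reagent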
Regarding `CC(C)N1C(=O)CC2(CCN(CCOC(=O)C(O)(c3ccccc3)c3ccccc3)CC2)C1=O`, the lysis activity is inactive: -1.17%.

For the compound `COc1cc(SC)ccc1C(=O)NCC1(N(C)C)CCCCC1`, the lysis activity was inactive: -1.08%.

On to `CCN(CC)CC(C)C(C)OC(=O)C(O)(c1ccccc1)c1ccccc1` (centres undefined), for which the lysis activity was inactive: 2.85%.

`Cc1ccc(C(=O)NCC2(N3CCCCC3)CCCCC2)cc1`: the lysis activity is inactive: 0.521%.

As to `CN1[C@@H]2CC[C@H]1CC(OC(=O)C(O)(c1ccccc1)c1ccccc1)C2` (some centres undefined), the lysis activity is inactive: 0.449%.

`O=C(NCC1(N2CCCCC2)CCCCC1)c1cc(F)c(F)cc1Cl`: the lysis activity is inactive: -1.26%.

Turning to `O=C(NCC1(N2CCCCC2)CCCCC1)c1cccc(Br)c1`, the lysis activity was inactive: 4.38%.

Turning to `Cc1cc(C(=O)NCC2(N3CCCCC3)CCCCC2)ccc1[N+](=O)[O-]`, the lysis activity is inactive: 2.42%.

For the compound `COc1ccc(C(=O)NCC2(N(C)C)CCCCC2)cc1`, the lysis activity is inactive: -2%.

In the case of `CN(C)c1ccc(C(=O)NCC2(N(C)C)CCCCC2)cc1`, the lysis activity is inactive: 1.2%.

On to `COc1ccc(Cl)cc1C(=O)NCC1(N(C)C)CCCCC1`, for which the lysis activity was inactive: -0.175%.

`O=C(NCC1(N2CCCCC2)CCCCC1)c1cccc(Cl)c1`: the lysis activity is inactive: 6.43%.

`CN(C)C1(CNC(=O)c2ccc(Br)cc2)CCCCC1`: the lysis activity is inactive: 0.137%.

On to `COc1cc(C(=O)NCC2(N(C)C)CCCCC2)c([N+](=O)[O-])cc1OC`, for which the lysis activity was inactive: -0.452%.

As to `COc1ccc(Br)c(C(=O)NCC2(N3CCCCC3)CCCCC2)c1`, the lysis activity was inactive: -0.714%.

`C=C(C)C#CC(O)(C(=O)OC1CCN(C)CC1)c1ccccc1` (centres undefined): the lysis activity is inactive: -0.655%.

Turning to `CN(C)c1cccc(C(=O)NCC2(N(C)C)CCCCC2)c1`, the lysis activity was inactive: 2.04%.

`O=C(OCCN1CCCC1)C(O)(c1ccccc1)c1ccccc1`: the lysis activity is inactive: -0.492%.

Turning to `CC(C)Oc1ccc(C(=O)NCC2(N(C)C)CCCCC2)cc1`, the lysis activity was inactive: 0.63%.

Source of the values: PubChem BioAssay AID651654 (Broad Institute, 2012).
